Measurements taken from article PMC7179958, “Prediction of Clinical Transporter‐Mediated Drug–Drug Interactions via Comeasurement of Pitavastatin and Eltrombopag in Human Hepatocyte Models” (CPT: Pharmacometrics & Systems Pharmacology, 2020).

Test system: human hepatocytes
Assay: Uptake of pitavastatin and eltrombopag in cryopreserved human hepatocytes (oil spin method), comeasurement, micro‐rate constant mechanistic model
Type: in vitro ADME
Experimental: Human hepatocytes were obtained from BioIVT (Brussels, Belgium; lot number: LYB; 10 donor LiverPool (8 Caucasians, 1 African American, and 1 Hispanic) and thawed according to supplier guidelines in Leibovitz L15 medium. Hepatocytes were kept on ice prior to use and were used within 3 hours of defrosting.
Hepatocytes (viability 84–87%) were preincubated in Leibovitz L15 medium at 1.5 × 10^6 cells for 15 minutes at 37 °C with either 0.1% DMSO or 45 nmol/mL eltrombopag. Incubations were started by the addition of pitavastatin (0.3–100 nmol/mL, 1 × 10^6 cells, 0.35% DMSO, 30 nmol/mL eltrombopag final), and 100 µL samples taken at 0.25–30 minutes. Cells were separated using an oil spin method similar to the literature. ^11 , ^17 After separation, the tubes were frozen on dry ice and the bottom layer was cut off. Pitavastatin and eltrombopag were extracted in a stop solution prior to ultra‐performance liquid chromatography–high‐resolution mass spectrometry analysis (see the Supplemental Material for full experimental and sample extraction methods).
The bottom layer concentrations of pitavastatin and eltrombopag were converted to a cellular concentration using a cellular volume (V cell) of 3 µL/1 × 10^6 human hepatocytes: ^18 (1) cellnmol/mL=Bottom layer×15.3μL/Vcell/100 where V cell /1 × 10^5 cells was 0.3 µL, and the volume of the bottom layer of cesium chloride was 15 µL. A dilution factor of 100 was used to scale from pmol/mL/1 × 10^5 cells to nmol/mL/1 × 10^6 cells.
The final chosen mechanistic model (model 1 with the comeasurement of pitavastatin and eltrombopag; Table 1 ) was based on the outcome of the structural identifiability analysis and goodness‐of‐fit statistics (Bayesian information criterion, and the weighted Bayesian information criterion, ^21 and the sum of the relative mean square root error (percentage RMSRE); see Supplemental Material ). Model 1 was described using a set of ODEs representing the following: the amount of pitavastatin (X = substrate (S) or pitavastatin (P)) and eltrombopag (X = inhibitor (I) or eltrombopag (E)) in the medium (X 1), the amount bound to transporter (X 2), and the intracellular amount (X 3). Passive rate constants for movement into and out of the cell (k f.X and k bX, respectively) as well as uptake transporter‐mediated rate constants for association to the transporter (k aX) and dissociation (k dX) and translocation (k tX) from the transporter into the medium and cell, respectively. Metabolism of pitavastatin in the cell was through an elimination rate constant (k e). The sets of ODEs for all the models (models 1–4; Table 1 ) tested for structural identifiability and used for parameter estimation are included in the Supplemental Material .
Parameter estimation was conducted within Monolix 2018 R2 (Lixoft, Antony, France) for each concentration and experiment as an individual data set, where to ensure positivity, a log‐normal distribution was assumed for each parameter, with a proportional residual error model for the observations. Because of the large number of parameters to be estimated in the combined pitavastatin and eltrombopag mechanistic model, the initial estimates for pitavastatin and eltrombopag each were obtained for the micro‐rate constant models (no macro‐rate constant estimates could be obtained for eltrombopag alone for transporter‐mediated uptake).
Hepatocyte Incubations. 0.4 mL of hepatocytes was diluted 1:1 with Leibovitz either containing DMSO blank (0.1 % for pitavastatin or 0.25 % for eltrombopag alone) or eltrombopag at 90 nmol/mL and pre-incubated at 1.5x10^6 cells/mL for 15 min at 37 °C in 7 mL glass scintillation vials (PerkinElmer, Vasby, Sweden) in a shaking water bath (Grant Instruments, Cambridge, UK). Pitavastatin was dissolved and serially diluted in DMSO to give 0.12, 0.4, 1.2, 4, 12 and 40 µmol/mL, and then diluted 400-fold into 37 °C Leibovitz L15 medium. […]

## O=C(O)C[C@H](O)C[C@H](O)/C=C/c1c(C2CC2)nc2ccccc2c1-c1ccc(F)cc1 [pitavastatin, pitavastatin calcium]
ID 11, AMT 10, TIME 25, DVID 1
  DV (pitavastatin uptake into hepatocytes): 101.31
ID 11, AMT 10, TIME 45, DVID 1
  DV (pitavastatin uptake into hepatocytes): 92.94
ID 12, AMT 10, TIME 15.25, DVID 1
  DV (pitavastatin uptake into hepatocytes): 10.24
ID 12, AMT 10, TIME 15.5, DVID 1
  DV (pitavastatin uptake into hepatocytes): 15.8
ID 12, AMT 10, TIME 16, DVID 1
  DV (pitavastatin uptake into hepatocytes): 23.52
ID 12, AMT 10, TIME 17, DVID 1
  DV (pitavastatin uptake into hepatocytes): 33.88
ID 12, AMT 10, TIME 20, DVID 1
  DV (pitavastatin uptake into hepatocytes): 45.66
ID 12, AMT 10, TIME 25, DVID 1
  DV (pitavastatin uptake into hepatocytes): 55.04
ID 12, AMT 10, TIME 45, DVID 1
  DV (pitavastatin uptake into hepatocytes): 58.31
ID 13, AMT 30, TIME 15.25, DVID 1
  DV (pitavastatin uptake into hepatocytes): 27.54
ID 13, AMT 30, TIME 15.5, DVID 1
  DV (pitavastatin uptake into hepatocytes): 39.76
ID 13, AMT 30, TIME 16, DVID 1
  DV (pitavastatin uptake into hepatocytes): 51.68
ID 13, AMT 30, TIME 17, DVID 1
  DV (pitavastatin uptake into hepatocytes): 70.77
ID 13, AMT 30, TIME 20, DVID 1
  DV (pitavastatin uptake into hepatocytes): 94.15
ID 13, AMT 30, TIME 25, DVID 1
  DV (pitavastatin uptake into hepatocytes): 96.56
ID 13, AMT 30, TIME 45, DVID 1
  DV (pitavastatin uptake into hepatocytes): 134.16
ID 14, AMT 30, TIME 15.25, DVID 1
  DV (pitavastatin uptake into hepatocytes): 55.36
ID 14, AMT 30, TIME 15.5, DVID 1
  DV (pitavastatin uptake into hepatocytes): 78.62
ID 14, AMT 30, TIME 16, DVID 1
  DV (pitavastatin uptake into hepatocytes): 112.65
ID 14, AMT 30, TIME 17, DVID 1
  DV (pitavastatin uptake into hepatocytes): 171.8
ID 14, AMT 30, TIME 20, DVID 1
  DV (pitavastatin uptake into hepatocytes): 206.15
ID 14, AMT 30, TIME 25, DVID 1
  DV (pitavastatin uptake into hepatocytes): 229.26
ID 14, AMT 30, TIME 45, DVID 1
  DV (pitavastatin uptake into hepatocytes): 248.83
ID 15, AMT 30, TIME 15.25, DVID 1
  DV (pitavastatin uptake into hepatocytes): 30.02
ID 15, AMT 30, TIME 15.5, DVID 1
  DV (pitavastatin uptake into hepatocytes): 44.72
ID 15, AMT 30, TIME 16, DVID 1
  DV (pitavastatin uptake into hepatocytes): 58.25
ID 15, AMT 30, TIME 17, DVID 1
  DV (pitavastatin uptake into hepatocytes): 83.69
ID 15, AMT 30, TIME 20, DVID 1
  DV (pitavastatin uptake into hepatocytes): 107.2
ID 15, AMT 30, TIME 25, DVID 1
  DV (pitavastatin uptake into hepatocytes): 109.61
ID 15, AMT 30, TIME 45, DVID 1
  DV (pitavastatin uptake into hepatocytes): 117.64
ID 16, AMT 100, TIME 15.25, DVID 1
  DV (pitavastatin uptake into hepatocytes): 69.18
ID 16, AMT 100, TIME 15.5, DVID 1
  DV (pitavastatin uptake into hepatocytes): 107.44
ID 16, AMT 100, TIME 16, DVID 1
  DV (pitavastatin uptake into hepatocytes): 136
ID 16, AMT 100, TIME 17, DVID 1
  DV (pitavastatin uptake into hepatocytes): 165.82
ID 16, AMT 100, TIME 20, DVID 1
  DV (pitavastatin uptake into hepatocytes): 300.74
ID 16, AMT 100, TIME 25, DVID 1
  DV (pitavastatin uptake into hepatocytes): 284.22
ID 16, AMT 100, TIME 45, DVID 1
  DV (pitavastatin uptake into hepatocytes): 366.49
ID 18, AMT 100, TIME 15.25, DVID 1
  DV (pitavastatin uptake into hepatocytes): 59.21
ID 18, AMT 100, TIME 15.5, DVID 1
  DV (pitavastatin uptake into hepatocytes): 73.16
ID 18, AMT 100, TIME 16, DVID 1
  DV (pitavastatin uptake into hepatocytes): 101.75
ID 18, AMT 100, TIME 17, DVID 1
  DV (pitavastatin uptake into hepatocytes): 141.38
ID 18, AMT 100, TIME 20, DVID 1
  DV (pitavastatin uptake into hepatocytes): 182.62
ID 18, AMT 100, TIME 25, DVID 1
  DV (pitavastatin uptake into hepatocytes): 214.66
ID 18, AMT 100, TIME 45, DVID 1
  DV (pitavastatin uptake into hepatocytes): 221.36
ID 19, AMT 0.3, TIME 15.25, DVID 2
  DV (pitavastatin uptake into hepatocytes): 0.25
ID 19, AMT 0.3, TIME 15.5, DVID 2
  DV (pitavastatin uptake into hepatocytes): 0.45
ID 19, AMT 0.3, TIME 16, DVID 2
  DV (pitavastatin uptake into hepatocytes): 0.51
ID 19, AMT 0.3, TIME 17, DVID 2
  DV (pitavastatin uptake into hepatocytes): 0.63
ID 19, AMT 0.3, TIME 20, DVID 2
  DV (pitavastatin uptake into hepatocytes): 0.88
ID 19, AMT 0.3, TIME 25, DVID 2
  DV (pitavastatin uptake into hepatocytes): 1.21
ID 19, AMT 0.3, TIME 45, DVID 2
  DV (pitavastatin uptake into hepatocytes): 1.12
ID 20, AMT 0.3, TIME 15.25, DVID 2
  DV (pitavastatin uptake into hepatocytes): 0.79
ID 20, AMT 0.3, TIME 15.5, DVID 2
  DV (pitavastatin uptake into hepatocytes): 1.03
ID 20, AMT 0.3, TIME 16, DVID 2
  DV (pitavastatin uptake into hepatocytes): 1.34
ID 20, AMT 0.3, TIME 17, DVID 2
  DV (pitavastatin uptake into hepatocytes): 1.85
ID 20, AMT 0.3, TIME 20, DVID 2
  DV (pitavastatin uptake into hepatocytes): 2.31
ID 20, AMT 0.3, TIME 25, DVID 2
  DV (pitavastatin uptake into hepatocytes): 2.46
ID 20, AMT 0.3, TIME 45, DVID 2
  DV (pitavastatin uptake into hepatocytes): 2.42
ID 21, AMT 0.3, TIME 15.25, DVID 2
  DV (pitavastatin uptake into hepatocytes): 0.35
ID 21, AMT 0.3, TIME 15.5, DVID 2
  DV (pitavastatin uptake into hepatocytes): 0.41
ID 21, AMT 0.3, TIME 16, DVID 2
  DV (pitavastatin uptake into hepatocytes): 0.5
ID 21, AMT 0.3, TIME 17, DVID 2
  DV (pitavastatin uptake into hepatocytes): 0.77
ID 21, AMT 0.3, TIME 20, DVID 2
  DV (pitavastatin uptake into hepatocytes): 1.03
ID 21, AMT 0.3, TIME 25, DVID 2
  DV (pitavastatin uptake into hepatocytes): 1.04
ID 21, AMT 0.3, TIME 45, DVID 2
  DV (pitavastatin uptake into hepatocytes): 1.11
ID 22, AMT 1, TIME 15.25, DVID 2
  DV (pitavastatin uptake into hepatocytes): 1.2
ID 22, AMT 1, TIME 15.5, DVID 2
  DV (pitavastatin uptake into hepatocytes): 1.3
ID 22, AMT 1, TIME 16, DVID 2
  DV (pitavastatin uptake into hepatocytes): 1.56
ID 22, AMT 1, TIME 17, DVID 2
  DV (pitavastatin uptake into hepatocytes): 2.36
ID 22, AMT 1, TIME 20, DVID 2
  DV (pitavastatin uptake into hepatocytes): 2.55
ID 22, AMT 1, TIME 25, DVID 2
  DV (pitavastatin uptake into hepatocytes): 3.55
ID 22, AMT 1, TIME 45, DVID 2
  DV (pitavastatin uptake into hepatocytes): 2.85
ID 23, AMT 1, TIME 15.25, DVID 2
  DV (pitavastatin uptake into hepatocytes): 2.8
ID 23, AMT 1, TIME 15.5, DVID 2
  DV (pitavastatin uptake into hepatocytes): 3.25
ID 23, AMT 1, TIME 16, DVID 2
  DV (pitavastatin uptake into hepatocytes): 4.14
ID 23, AMT 1, TIME 17, DVID 2
  DV (pitavastatin uptake into hepatocytes): 4.35
